Patent US20030229105A1, “Treatment of autoimmune disorders” (Cyclacel Limited, priority 2002, published 2003)

Tested on: cdk1 and 2 transcription
Format: cell-based
Conditions: infected cells, preliminary Northern blot (data not shown)

Roscovitine was tested, and the “transcription of cdk1 and 2” value was “not affected”.
